# Source: PubChem BioAssay AID743238 (Broad Institute, 2013)
# The entries are a selection whose mix differs from that of the whole data set. Some results for these compounds are left out of this collection, so the calls shown say nothing about other tests. Calls of active or inactive are those of the source.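 How the source made its calls: active means mean normalized replicate activation at least 10% and every replicate at or above 10%; inconclusive means only one of the two criteria met; inactive means mean below 10% and not all replicates reach 10%.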
# Assay: Xi reactivation inducers in mouse fibroblasts – imaging, XiGFP fibroblasts, GFP high-content imaging, set 2, primary screen (AID 743238);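 further: 0% = median of on-plate neutral control wells and 100% = ellipticine 6 µM median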
# Conditions: % GFP-positive cells imaging, 3 d, at 7.58 µM, stronger effect = higher value, cells co-treated with 5-aza-dC sensitizer, scaled so ellipticine positive control = 100%
# Method in brief: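 System: SV40-immortalized XiGFP fibroblast cells, line 68-5-11 / Incubation: 3-day compound exposure, then 15 min fixation at room temperature / Compound: single concentration per compound, delivered by pin transfer / Buffer or medium: DMEM plus 5-aza-dC sensitizer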
row,Compound,activation
1,CN(C)C1(CNC(=O)c2ccc(Br)cc2)CCCCC1,inactive: -0.042%
2,COc1cc(C(=O)NCC2(N(C)C)CCCCC2)c([N+](=O)[O-])cc1OC,inactive: 0.0335%
3,COc1ccc(Cl)cc1C(=O)NCC1(N(C)C)CCCCC1,inactive: -0.083%
4,COc1cccc(C(=O)NCC2(N3CCCCC3)CCCCC2)c1,inactive: -0.128%
5,O=C(NCC1(N2CCCCC2)CCCCC1)c1cccc(Cl)c1,inactive: 0.0185%
6,COc1ccc(Br)c(C(=O)NCC2(N3CCCCC3)CCCCC2)c1,inactive: -0.013%
7,C=C(C)C#CC(O)(C(=O)OC1CCN(C)CC1)c1ccccc1 (stereo not drawn),inactive: -0.012%
8,O=C(OCCN1CCCC1)C(O)(c1ccccc1)c1ccccc1,inactive: 0.214%
9,CC(C)Oc1ccc(C(=O)NCC2(N(C)C)CCCCC2)cc1,inactive: -0.045%
10,O=C(NCC1(N2CCCCC2)CCCCC1)c1cc([N+](=O)[O-])ccc1Cl,inactive: 0.12%
11,CN1[C@@H]2CC[C@H]1CC(OC(=O)C(O)(c1ccccc1)c1ccccc1)C2 (stereo partly drawn),inactive: 0.0245%
12,COc1cc(SC)ccc1C(=O)NCC1(N(C)C)CCCCC1,inactive: -0.025%
13,CCN(CC)CC(C)C(C)OC(=O)C(O)(c1ccccc1)c1ccccc1 (stereo not drawn),inactive: -0.328%
14,Cc1ccc(C(=O)NCC2(N3CCCCC3)CCCCC2)cc1,inactive: -0.0425%
15,CN(C)c1ccc(C(=O)NCC2(N(C)C)CCCCC2)cc1,inactive: -0.0105%
16,CN(C)C1CCCC1OC(=O)C(O)(c1ccccc1)c1ccccc1 (stereo not drawn),inactive: -0.618%
17,Cc1ccccc1C(=O)NCC1(N2CCCCC2)CCCCC1,inactive: 0.133%
18,O=C(NCC1(N2CCCCC2)CCCCC1)c1cc(F)c(F)cc1Cl,inactive: 0.016%
19,C=CCN1CCN(CCOC(=O)C(O)(c2ccccc2)c2ccccc2)CC1,inactive: -0.0505%
20,O=C(NCC1(N2CCCCC2)CCCCC1)c1cccc(Br)c1,inactive: 0.373%
21,CCN1CCCC(OC(=O)C2(O)c3ccccc3C=Cc3ccccc32)C1 (stereo not drawn),inactive: 0.143%
22,Cc1cc(C(=O)NCC2(N3CCCCC3)CCCCC2)ccc1[N+](=O)[O-],inactive: 0.516%
23,COc1ccc(C(=O)NCC2(N(C)C)CCCCC2)cc1,inactive: -0.0915%
